# Literature values in patent US9050475B2, “High SPF sunscreen compositions” (MD SOLARSCIENCES CORP., priority 2010, dated 2015).
# Only a part of the results on these compounds is given; other tests are left out.
# Settings: known UV-A or UV-B protection properties of FDA-approved sunscreens
substance,measurement,value
triethanolamine salicylate,Range Covered,UV-B (UV-B: 290-320 nm)
